From ChEMBL document CHEMBL4400551, “Discovery and lead optimisation of a potent, selective and orally bioavailable RARβ agonist for the potential treatment of nerve injury” (Bioorg Med Chem Lett, 2019) come the findings set out here.

The species entered for this test is Mus musculus. Nature of the test: Selectivity ratio of EC50 for GAL4-fused mouse RARalpha LBD expressed in COS-7 cells to EC50 for GAL4-fused mouse RARbeta-LBD expressed in COS-7 cells. It counts as cell-based.

`COc1ccc(-c2ccc3cc(C(=O)O)ccc3c2)cc1C1(C)CCCCC1`: the Ratio EC50 amounted to 11.
